The values that follow come from patent US20220267441A1 (VOR BIOPHARMA, published 2022).

In the experiment the target is T1, purified human CD45 ectodomain (human CD45RABC antigen) (human, UniProt P08575 26-577).
T1 construct: also called hCD45
T1 sequence: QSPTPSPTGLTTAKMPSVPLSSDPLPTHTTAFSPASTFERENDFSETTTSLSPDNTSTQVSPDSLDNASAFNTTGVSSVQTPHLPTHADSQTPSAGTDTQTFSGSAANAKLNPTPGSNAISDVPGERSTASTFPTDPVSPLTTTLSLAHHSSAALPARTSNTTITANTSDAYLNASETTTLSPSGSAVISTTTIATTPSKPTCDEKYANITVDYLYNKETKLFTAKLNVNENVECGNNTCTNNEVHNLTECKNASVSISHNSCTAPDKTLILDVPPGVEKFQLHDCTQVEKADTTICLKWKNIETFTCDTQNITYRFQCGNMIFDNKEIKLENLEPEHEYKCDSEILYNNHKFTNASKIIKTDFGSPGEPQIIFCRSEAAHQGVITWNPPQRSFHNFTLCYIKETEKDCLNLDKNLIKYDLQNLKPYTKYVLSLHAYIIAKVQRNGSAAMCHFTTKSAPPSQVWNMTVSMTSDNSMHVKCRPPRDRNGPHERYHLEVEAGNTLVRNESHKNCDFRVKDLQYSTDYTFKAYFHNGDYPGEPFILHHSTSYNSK
Put plainly: BLI (Octet Red96), IgG on anti-human Fc sensor, 100 nM CD45 ectodomain, 1:1 fit.

B1: Antibody 1 (Ab1) (antibody, V domains shown)
VH: QVQLVESGGGLVKPGGSLRLSCAASGFTFSSYSMNWVRQAPGKGLEWVSYISSSSSTIYYADSVKGRFTISRDNAKNSLYLQMNSLRAEDTAVYYCARGGQYYYDSSRYGEVAFDIWGQGTMVTVSS
VL: not shown
notes: Fully human IgG from yeast display; also called Parent 1; parent clone Ab1
For the molecule B1, binding was put at a Kd of 109 nM.
